Measurements as given in PMC11266321 (EJNMMI Radiopharmacy and Chemistry, 2024).

The chains behind the UniProt entries cited, without tags or fusion partners. Where a name states a change or a piece, a line headed by the entry shows the natural chain unless it says otherwise.
UniProt Q9Y5N1: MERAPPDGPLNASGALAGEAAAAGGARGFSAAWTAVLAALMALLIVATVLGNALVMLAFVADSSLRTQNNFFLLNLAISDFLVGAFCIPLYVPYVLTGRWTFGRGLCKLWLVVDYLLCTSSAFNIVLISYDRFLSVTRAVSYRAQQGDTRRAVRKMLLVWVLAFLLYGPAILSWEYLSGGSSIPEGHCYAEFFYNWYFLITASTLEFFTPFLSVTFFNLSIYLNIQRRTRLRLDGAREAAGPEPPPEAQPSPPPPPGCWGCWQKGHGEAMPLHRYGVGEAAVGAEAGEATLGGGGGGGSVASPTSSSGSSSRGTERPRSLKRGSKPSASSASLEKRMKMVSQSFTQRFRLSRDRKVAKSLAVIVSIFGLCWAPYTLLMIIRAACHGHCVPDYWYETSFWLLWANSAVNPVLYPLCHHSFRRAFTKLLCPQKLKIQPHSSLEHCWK

Molecular target: T1, Histamine H3 (Homo sapiens, UniProt Q9Y5N1)
T1 construct: Sekisui Medical (contract laboratory)
Assay: Radioligand binding inhibition, Histamine H3
Conditions: 10 µM; radioligand [^3H]N-methyl-histamine; mean of duplicate
Description: Interaction of MMP with 28 binding sites was examined, including major classes of neurotransmitter receptor, uptake system, and ion channels (Sekisui Medical, Naka, Japan). MMP was tested in all assays at 10 µM. […] 10.2.3 (GraphPad Software, San Diego, CA). Each determination was made in duplicate.
Test substance concentration : 10 µM, positive substance concentration : 10 µM
Data are expressed as the mean values of duplicate samples.
The % inhibition was calculated from “100 – binding ratio”.
Binding ratio: [(B - N) / (B0 - N)] × 100 (%)
B: Bound radioactivity in the presence of test substance and positive substance (individual value)
B0: Total bound radioactivity in the absence of test substance and positive substance (mean value)
N: Non-specific bound radioactivity (mean value)

Substance: (R)(–)-α-Methylhistamine [reference compound]
- Inhibition ratio (%): 99.25%
